{"sequences": {"note": "Amino acid sequences for entries named in this document (tags omitted). A change or cut given only in a name is not applied to a line headed by its entry.", "UniProt Q9UNQ0": "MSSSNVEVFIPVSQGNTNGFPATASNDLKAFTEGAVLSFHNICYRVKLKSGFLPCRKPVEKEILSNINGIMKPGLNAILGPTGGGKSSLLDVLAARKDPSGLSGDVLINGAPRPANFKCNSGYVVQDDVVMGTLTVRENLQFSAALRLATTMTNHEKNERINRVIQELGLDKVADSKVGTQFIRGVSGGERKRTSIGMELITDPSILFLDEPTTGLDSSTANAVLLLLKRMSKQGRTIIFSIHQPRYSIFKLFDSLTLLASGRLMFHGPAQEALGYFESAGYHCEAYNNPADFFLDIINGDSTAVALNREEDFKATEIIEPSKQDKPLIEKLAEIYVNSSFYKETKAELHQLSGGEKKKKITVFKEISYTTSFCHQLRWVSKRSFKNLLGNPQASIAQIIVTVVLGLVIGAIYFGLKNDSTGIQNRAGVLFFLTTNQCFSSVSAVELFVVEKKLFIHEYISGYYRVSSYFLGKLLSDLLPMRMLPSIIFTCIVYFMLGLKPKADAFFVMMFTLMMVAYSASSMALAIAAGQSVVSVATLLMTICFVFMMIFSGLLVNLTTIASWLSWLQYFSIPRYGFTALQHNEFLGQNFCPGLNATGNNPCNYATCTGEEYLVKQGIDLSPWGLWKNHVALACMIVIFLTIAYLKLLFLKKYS"}, "source": "paper PMC8175309", "about": "“Translational CNS Steady-State Drug Disposition Model in Rats, Monkeys, and Humans for Quantitative Prediction of Brain-to-Plasma and Cerebrospinal Fluid-to-Plasma Unbound Concentration Ratios” (The AAPS Journal, 2021)", "key": {"[1]": {"details": "in vivo; cited from earlier work"}, "BCRP": {"molecular_target": "BCRP (Homo sapiens, UniProt Q9UNQ0)", "assay": "Transcellular transport across MDCK-BCRP cell monolayers (efflux ratio)", "details": "dog, pH 7.4"}, "[2]": {"details": "in vivo; cited from earlier work", "remark": "listed apart in the source"}}}
{"smiles": "Cc1cc2c(s1)Nc1ccccc1N=C2N1CCN(C)CC1", "note": "[Olanzapine]", "values": [{"measurement": "Kp,uu,brain Human", "setting": "[1]", "value": 0.15}, {"measurement": "efflux ratio at 1 h, 1 μM", "setting": "BCRP", "value": 0.8}, {"measurement": "Kp,uu,brain Rat", "setting": "[2]", "value": 2.450}]}
